Assay results reported in patent US11224222B2, “Synergistic compositions of dehydroacetic acid and methods for reducing yellowing in various end-user compositions” (ISP Investments LLC, priority 2015, dated 2022).

Assay: Solubility of DHA in aprotic and protic solvents
Settings: DHA in the named aprotic solvent (Table 8)
Text: In order to choose the suitable solvent for preparing non-yellowing DHA composition, the different possible protic, aprotic solvents were selected and evaluated individually and also as their suitable mixture.
In case of aprotic solvents, it was selected based on its compatibility with other ingredients present in the end-user products. Further, the regulatory requirement was also considered as an important element in choosing preferred aprotic solvent for preparing non-yellowing/reduced-yellowing DHA composition of the present application. The high content of DHA can be introduced in the solvent by dispersing or dissolving the DHA in their corresponding aprotic solvents. […] The various solvents selected are disclosed in Table 8.
Further, the applicants have evaluated various protic solvents to understand their ability to render non-yellowing/reduced-yellowing DHA composition for employing in various end-user products that are aqueous in nature.

% of DHA soluble: None
Substance: Ethlyene carbonate
